Measurements from patent US20070213394A1 (priority 2004, published 2007).

Sequences of proteins named here, by UniProt entry; tags and fusion partners are left off. A change or cut given only in a name is not applied to a line headed by its entry.
UniProt P41145: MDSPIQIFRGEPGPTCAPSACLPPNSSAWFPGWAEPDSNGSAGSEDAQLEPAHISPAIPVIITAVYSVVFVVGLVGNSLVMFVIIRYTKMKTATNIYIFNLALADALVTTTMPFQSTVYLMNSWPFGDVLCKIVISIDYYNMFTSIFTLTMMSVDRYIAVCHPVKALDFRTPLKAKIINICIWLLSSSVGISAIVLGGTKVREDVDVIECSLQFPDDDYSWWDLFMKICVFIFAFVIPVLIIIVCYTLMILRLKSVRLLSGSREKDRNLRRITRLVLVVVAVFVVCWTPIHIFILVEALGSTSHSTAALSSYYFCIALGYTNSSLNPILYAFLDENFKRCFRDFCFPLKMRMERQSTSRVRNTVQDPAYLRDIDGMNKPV

How the values were obtained:
[1] = target: T1, human kappa opioid receptor (Homo sapiens, UniProt P41145); test: biochemical; conditions: for Emax: 1 h, read-out: Efficacy
T1 construct: expressed in transfected cells; host or cells: Chinese hamster ovary cells (CHO-hKOR), membranes

[2] = target: T1, human kappa opioid receptor; test: biochemical; assay type: binding

SMILES: COC(=O)[C@@H]1C[C@@H](NC(C)C)C(=O)C2[C@@]1(C)CC[C@H]1C(=O)O[C@H](c3ccoc3)C[C@]21C (stereo partly drawn) [Compound 75, 2-epi-(N-isopropyl)-salvinorin]
- Emax [1]: 107%

SMILES: CCCCO[C@H]1C[C@@H](C(=O)OC)[C@]2(C)CC[C@H]3C(=O)O[C@H](c4ccoc4)C[C@]3(C)C2C1=O (some centres unmarked) [Compound 13, 2-n-butoxy-salvinorin B]
- Emax [1]: 105%

SMILES: COC(=O)[C@@H]1C[C@@H](OC(C)=O)C(=O)[C@H]2[C@@]1(C)CC[C@H]1C(=O)O[C@H](c3ccoc3)C[C@]21C [2-episalvinorin A, 2-epi-salvinorin A]
- Efficacy [1]: 102%

SMILES: COC(=O)[C@@H]1C[C@H](OCc2ccccc2)C(=O)C2[C@@]1(C)CC[C@H]1C(=O)O[C@H](c3ccoc3)C[C@]21C (some centres unmarked) [Compound 17, 2-benzyloxy-salvinorin B]
- Emax [1]: 102%

SMILES: COC(=O)C1CC(NC(C)=O)C(=O)C2C1(C)CCC1C(=O)OC(c3ccoc3)CC12C (stereo not drawn) [Compound 212b, 2-epi-(acetamide)-salvinorin]
- Efficacy [1]: 103%

SMILES: CCN[C@@H]1C[C@@H](C(=O)OC)[C@]2(C)CC[C@H]3C(=O)O[C@H](c4ccoc4)C[C@]3(C)C2C1=O (some centres unmarked) [Compound 18, 2-(N-ethylamino)-salvinorin]
- Emax [1]: 111%

SMILES: CCNC1CC(C(=O)OC)C2(C)CCC3C(=O)OC(c4ccoc4)CC3(C)C2C1=O (centres unmarked) [Compound 209a, 2-(N-ethyl)-salvinorin]
- Emax [1]: 104%

SMILES: COC(=O)[C@@H]1C[C@@H](O)C(=O)C2[C@@]1(C)CC[C@H]1C(=O)O[C@H](c3ccoc3)C[C@]21C (stereo partly drawn) [2-episalvinorin B, 2-epi-salvinorin B]
- Ki [2]: > 10000 nM

SMILES: COC(=O)C1CC(NC(C)=O)C(=O)C2C1(C)CCC1C(=O)OC(c3ccoc3)CC12C (centres unmarked) [Compound 212a, 2-(acetamide)-salvinorin]
- Emax [1]: 106%

SMILES: COC(=O)[C@@H]1C[C@H](O)C(=O)C2[C@@]1(C)CC[C@H]1C(=O)O[C@H](c3ccoc3)C[C@]21C (some centres unmarked) [Compound 1, salvinorin B]
- EC50 [1]: 371 ± 49 nM
- Ki [2]: 155 ± 23 nM
